This passage reports Ki results from patent US9994581B2, “Bromodomain inhibitors” (AbbVie Inc., priority 2013, dated 2018).

Each structure is given as a SMILES string.

The assay deals with BRD4 (BDI-BDII_K57-K550) (Homo sapiens, UniProt O60885). Description: TR-FRET bromodomain binding assay. The following applies: His-tagged tandem bromodomain, Alexa647-labeled probe; Ki calculated from IC50s, probe Kd and probe concentration. The procedure:
A time-resolved fluorescence resonance energy transfer (TR-FRET) assay was used to determine the affinities of compounds of the Examples listed in Table 1 for the tandem domain of bromodomain BRD4. […] An Alexa647-labeled BET-inhibitor was used as the fluorescent probe in the assay.
TR-FRET data were normalized to the means of 24 no-compound controls (“high”) and 8 controls containing 1 μM un-labeled probe (“low”). Percent inhibition was plotted as a function of compound concentration and the data were fit with the 4 parameter logistic equation to obtain IC50s. Inhibition constants (Ki) were calculated from the IC50s, probe Kd and probe concentration. Typical Z′ values were between 0.65 and 0.75.

Take `CCS(=O)(=O)Nc1ccc2c(c1)-c1cn(C)c(=O)cc1OCCCCc1cc(F)cc(F)c1O2` [Example A-14, N-(11,13-difluoro-2-methyl-3-oxo-2,3,6,7,8,9-hexahydrodibenzo[4,5:7,8][1,6]dioxacyclododecino[3,2-c]pyridin-17-yl)ethanesulfonamide]: the Ki is 1.47 nM.
